Source: US6416753B1, “Method for modulating apoptosis” (The General Hospital Corporation, priority 1996, dated 2002)

Test system: COS cells
Test: Cell death of COS cells transfected with Ice-lacZ / Ich-1L-lacZ / proIL-1β, round blue cells scored
Assay type: cell-based
Method: COS cells were plated (2×10^4) in 6-well plates in DMEM with 10% FCS. After 12 hours the wells were washed with serum and antibiotic free medium, and transfected using lipofectamine with either Ice-lacZ, Ich-1L-lacZ, βactin-lacZ(1 μg) or with proIL-1β (0.5 μg) for 3 hours. The sequence for Ich-1L is shown in FIG. 7 and the sequences of human ICE and pro- IL-1β are found respectively in Thornsberry et al., Nature 356:768-774 (1992) and in J. Immunol. 137:3644-3648, 1986. The medium was then removed and DMEM with 10% FCS added. IL-1Ra (40 ng/ml) was then added to the appropriate wells, and after one hour IL-1β (100 ng/ml) was added. X-gal reaction was performed 36 hours following the transfection and percentage of round blue (dead) cells were scored (Miura, M., et al., Cell 75: 653 (1993))

TNF-α: pleiotropic tumoricidal cytokine
Induction of apoptosis in COS cells by the exogenous cytokine alone (COS cells without Ice/Ich-1L transfection): did not induce apoptosis
Induction of cell death in Ice-lacZ or Ich-1L-lacZ transfected COS cells (extracellular cytokine, 36 hours after transfection): efficiently induced cell death
